From PubChem BioAssay AID588850 (Sanford-Burnham Center for Chemical Genomics, 2011)
The entries are a selection whose mix differs from that of the whole data set. Activity calls are given as the source filed them.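 How the source made its calls: active means at least 50% inhibition at 5 µM, scaled per plate between neutral and stimulator controls; inactive means the rest.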

Experiment: inhibitors of PAF-induced NF-kB signaling, primary screen, cell-based, GFP fluorescence, uHTS (AID 588850);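 further: PAF is a Pseudomonas aeruginosa culture filtrate used as stimulus; plate controls were PAF-stimulated DMSO wells for no effect and unstimulated DMSO wells for full effect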
Details: KKLEB NF-kB-GFP reporter, GFP fluorescence overnight, at 5 µM, hits give high values
With CP(=O)(OC12CC3CC(CC(C3)C1)C2)OC12CC3CC(CC(C3)C1)C2 the inhibition was inactive: -0.5%.
With CCOC(=O)c1ccc(NP(C)(=O)Oc2ccc(Cl)cc2)cc1 (centres undefined) the inhibition was inactive: -21.5%.
With CP(=O)(Nc1ccc(Cl)cc1)Oc1ccc(F)cc1 (centres undefined) the inhibition was inactive: 12.4%.
In the case of CC(C)(C)c1ccc(OP(C)(=O)O)cc1, the inhibition is reported as inactive: -1.6%.
With COc1ccccc1OP(C)(=O)Nc1ccccc1Br (centres undefined) the inhibition was inactive: 6.6%.
In the case of CN(C)C(=O)c1c([N+](=O)[O-])cc([N+](=O)[O-])cc1[N+](=O)[O-], the inhibition is reported as inactive: 12.6%.
For COc1ccc(OP(C)(=O)Nc2ccc(Br)cc2)cc1 (centres undefined), the inhibition was inactive: -2.3%.
For CCN(CC)CC(O)COC(=O)C(O)(c1ccccc1)C1CCCCC1 (centres undefined), the inhibition was inactive: -5.1%.
In the case of CCc1ccc(OP(C)(=O)Nc2cccnc2)cc1 (centres undefined), the inhibition is reported as inactive: 4.6%.
For CP(=O)(Oc1ccccc1)N1CCOC1=O (centres undefined), the inhibition was inactive: -11.1%.
With O=C(OCCCN1CCCC1)C(O)(c1ccccc1)C1CCCCC1 (centres undefined) the inhibition was inactive: 3%.
In the case of COc1ccccc1OP(C)(=O)Nc1c(C)n(C)n(-c2ccccc2)c1=O (centres undefined), the inhibition is reported as inactive: -3.3%.
With O=[N+]([O-])c1cc([N+](=O)[O-])c(Nc2ccccn2)c([N+](=O)[O-])c1 the inhibition was inactive: 9.8%.
With Cc1c(NP(C)(=O)Oc2ccc(C(C)C)cc2)c(=O)n(-c2ccccc2)n1C (centres undefined) the inhibition was inactive: -0.9%.
With CCc1ccc(OP(C)(=O)O)cc1 the inhibition was inactive: 4.7%.
With COc1ccccc1OP(C)(=O)Nc1ccc(C)cc1C (centres undefined) the inhibition was inactive: -0.9%.
With CP(=O)(Nc1ccccn1)Oc1ccccc1 (centres undefined) the inhibition was inactive: 8.3%.
In the case of COc1ccccc1OP(C)(=O)Nc1ccc(Br)cc1 (centres undefined), the inhibition is reported as inactive: 4.4%.
For CN(C)CCOC(=O)C(O)(c1ccccc1)C1CCCC1 (centres undefined), the inhibition was inactive: 10%.
With COc1ccc(OP(C)(=O)Nc2ccccn2)cc1 (centres undefined) the inhibition was inactive: 42.7%.
In the case of CP(=O)(OCCOc1ccccc1)OCCOc1ccccc1, the inhibition is reported as inactive: -13%.
With CP(=O)(Nc1ccc(Cl)cc1Cl)Oc1ccccc1 (centres undefined) the inhibition was inactive: 7.4%.
In the case of CCCCCCCCCCCCCCCC1C[N+](C)(C)CCOP(C)(=O)O1 (centres undefined), the inhibition is reported as inactive: 28%.
With Cc1cc(C)cc(OP(C)(=O)Nc2cccc(C(F)(F)F)c2)c1 (centres undefined) the inhibition was inactive: 19%.
In the case of O=C1C(O)=C([N+](=O)[O-])C(=O)C(O)=C1[N+](=O)[O-], the inhibition is reported as inactive: -14%.
With COc1ccc(OP(C)(=O)Nc2ccccc2Br)cc1 (centres undefined) the inhibition was inactive: 9.2%.
In the case of COc1ccccc1OP(C)(=O)Nc1ccc(C)c(C)c1 (centres undefined), the inhibition is reported as inactive: 2.3%.
For CCN(CC)CCCOC(=O)C(O)(c1ccccc1)C1CCCCC1 (centres undefined), the inhibition was inactive: -10.4%.
In the case of Cc1c([N+](=O)[O-])cc([N+](=O)[O-])c(Br)c1[N+](=O)[O-], the inhibition is reported as inactive: 0.1%.
